Protein sequences, listed by entry. Tags and fused reporters are not part of them. Lines headed by an entry give the natural chain unless they say otherwise; changes in a name come on top.
UniProt A0A0H5BR52, entry or part of it: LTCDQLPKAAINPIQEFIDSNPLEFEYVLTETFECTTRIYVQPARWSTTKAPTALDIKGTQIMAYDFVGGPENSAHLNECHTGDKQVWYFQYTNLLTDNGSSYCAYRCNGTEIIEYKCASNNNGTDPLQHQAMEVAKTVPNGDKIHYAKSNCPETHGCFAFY
UniProt P52704: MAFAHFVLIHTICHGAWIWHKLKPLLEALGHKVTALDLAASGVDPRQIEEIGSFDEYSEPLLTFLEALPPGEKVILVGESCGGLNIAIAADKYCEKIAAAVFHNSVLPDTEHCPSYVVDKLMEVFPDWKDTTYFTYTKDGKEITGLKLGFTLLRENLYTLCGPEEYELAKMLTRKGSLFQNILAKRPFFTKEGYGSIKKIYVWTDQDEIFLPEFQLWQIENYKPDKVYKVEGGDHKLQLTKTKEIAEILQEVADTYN

In patent publication US20170166879A1, “NOVEL (R)-HYDROXYNITRILE LYASE” (PUBLIC UNIVERSITY CORPORATION TOYAMA PREFECTURAL UNIVERSITY, priority 2014, published 2017):

Legend:
R-ChHNL = R-ChHNL (Chamberlinius hualienensis, UniProt A0A0H5BR52); assay: Search of inhibitor of R-ChHNL activity (remaining activity); type: biochemical
[1] = target: S-HNL derived from Para rubber tree (Hevea brasiliensis) (Hevea brasiliensis, UniProt P52704); details: cited from earlier work

N.N#CS [ammonium thiocyanate]
inhibition of the R-ChHNL (R-ChHNL): does not inhibit
Remaining activity (R-ChHNL; pH 7): 43%
inhibition of S-HNL [1]: strongly inhibits
